{"sequences": {"note": "Chains of the proteins cited; added tags and fusions are not shown. Residues count along the entry.", "UniProt P03956, 100-469 limits assumed": "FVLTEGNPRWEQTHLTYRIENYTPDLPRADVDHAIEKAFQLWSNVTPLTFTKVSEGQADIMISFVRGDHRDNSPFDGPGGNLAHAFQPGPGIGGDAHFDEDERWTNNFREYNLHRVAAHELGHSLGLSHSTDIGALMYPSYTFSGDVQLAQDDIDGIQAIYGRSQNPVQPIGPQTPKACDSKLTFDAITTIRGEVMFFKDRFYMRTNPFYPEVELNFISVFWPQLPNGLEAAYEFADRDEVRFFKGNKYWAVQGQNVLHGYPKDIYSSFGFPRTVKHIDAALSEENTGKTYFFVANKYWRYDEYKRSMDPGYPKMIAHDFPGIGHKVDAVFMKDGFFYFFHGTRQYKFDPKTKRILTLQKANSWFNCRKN", "UniProt P08254, 100-477 limits assumed": "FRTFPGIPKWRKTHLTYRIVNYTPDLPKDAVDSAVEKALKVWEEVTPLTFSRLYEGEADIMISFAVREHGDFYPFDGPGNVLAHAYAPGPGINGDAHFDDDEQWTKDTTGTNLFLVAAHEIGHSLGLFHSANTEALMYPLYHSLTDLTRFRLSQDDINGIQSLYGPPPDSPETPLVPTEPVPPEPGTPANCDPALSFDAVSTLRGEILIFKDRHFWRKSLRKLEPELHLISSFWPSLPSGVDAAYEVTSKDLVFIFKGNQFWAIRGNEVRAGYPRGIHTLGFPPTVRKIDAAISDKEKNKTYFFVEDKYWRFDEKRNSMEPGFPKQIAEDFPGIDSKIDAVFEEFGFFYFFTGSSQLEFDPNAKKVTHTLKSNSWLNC", "UniProt P14780, 94-707 limits assumed": "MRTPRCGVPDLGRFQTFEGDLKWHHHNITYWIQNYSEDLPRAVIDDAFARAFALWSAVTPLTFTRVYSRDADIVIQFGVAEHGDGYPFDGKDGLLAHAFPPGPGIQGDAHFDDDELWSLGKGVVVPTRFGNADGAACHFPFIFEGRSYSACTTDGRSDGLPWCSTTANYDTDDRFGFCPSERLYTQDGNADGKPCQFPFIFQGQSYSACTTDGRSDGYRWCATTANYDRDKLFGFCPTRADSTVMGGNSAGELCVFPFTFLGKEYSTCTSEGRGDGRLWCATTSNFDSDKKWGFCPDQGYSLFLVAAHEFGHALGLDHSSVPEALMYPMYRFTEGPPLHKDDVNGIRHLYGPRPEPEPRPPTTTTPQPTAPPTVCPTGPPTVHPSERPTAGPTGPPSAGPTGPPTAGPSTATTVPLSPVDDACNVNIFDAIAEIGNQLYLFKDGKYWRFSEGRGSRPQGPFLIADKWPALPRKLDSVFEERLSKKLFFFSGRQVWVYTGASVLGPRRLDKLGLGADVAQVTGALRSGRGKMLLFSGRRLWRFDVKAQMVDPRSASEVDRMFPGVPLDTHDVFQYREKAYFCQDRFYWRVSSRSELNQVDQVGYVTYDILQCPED", "UniProt P39900, 106-470 limits assumed": "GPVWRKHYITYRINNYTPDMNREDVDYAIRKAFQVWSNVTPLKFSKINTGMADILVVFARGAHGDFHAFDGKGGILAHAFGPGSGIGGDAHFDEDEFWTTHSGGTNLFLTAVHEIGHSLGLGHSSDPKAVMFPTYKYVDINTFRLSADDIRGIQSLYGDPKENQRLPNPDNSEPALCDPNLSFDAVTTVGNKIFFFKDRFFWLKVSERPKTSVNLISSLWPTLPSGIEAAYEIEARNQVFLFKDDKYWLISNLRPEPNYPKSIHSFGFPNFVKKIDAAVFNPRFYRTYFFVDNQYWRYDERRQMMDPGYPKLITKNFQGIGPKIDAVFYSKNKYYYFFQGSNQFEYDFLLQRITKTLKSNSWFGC"}, "source": "patent US20050107306A1", "about": "“Treatment of respiratory disease associated with matrix metalloproteases by inhalation of synthetic matrix metalloprotease inhibitors” (priority 2003, published 2005)", "origin": "cited, not measured here", "key": {"[1]": {"biological_target": "MMP-1 (collagenase-1) (Homo sapiens, UniProt P03956)", "conditions": "read-out: MMP-1 (collagenase-1) Kl; cited from earlier work"}, "[2]": {"biological_target": "MMP-3 (stromelysin) (Homo sapiens, UniProt P08254)", "conditions": "read-out: MMP-3 (stromelysin) Kl; cited from earlier work"}, "[3]": {"biological_target": "MMP-9 (gelatinase B) (Homo sapiens, UniProt P14780)", "conditions": "read-out: MMP-9 (gelatinase B) Kl; cited from earlier work"}, "[4]": {"biological_target": "MMP-12 (macrophage metalloelastase, ME) (Homo sapiens, UniProt P39900)", "conditions": "read-out: MMP-12 (macrophage metalloelastase, ME) Kl; cited from earlier work"}, "[5]": {"biological_target": "Membrane-type MMP-1 (Homo sapiens, UniProt P50281)", "conditions": "read-out: Membrane-type MMP-1 Kl (values in parentheses); cited from earlier work"}, "[6]": {"tested_on": "smoking-induced COPD", "conditions": "delivered orally, at oral doses several hundred-fold greater than pulmonary doses of the invention; cited from earlier work"}}, "data": [{"smiles": "O=C(CC1(S(=O)(=O)c2ccc(Oc3ccc(Cl)cc3)cc2)CCOCC1)NO", "values": [{"measurement": "Ki", "setting": "[1]", "value": 70, "unit": "nM"}, {"measurement": "Ki", "setting": "[2]", "value": 5.2, "unit": "nM"}, {"measurement": "Ki", "setting": "[3]", "value": 0.065, "unit": "nM"}, {"measurement": "Ki", "setting": "[4]", "value": 0.033, "unit": "nM"}, {"measurement": "Ki", "setting": "[5]", "value": 0.089, "unit": "nM"}, {"measurement": "efficacy against smoking-induced COPD", "setting": "[6]", "value": "effective"}]}]}
